Measurements reported in patent publication EP2073012A1, “Method for the isolation and identification of ADP-ribosylated molecules” (Fondazione Telethon, priority 2007, dated 2009).

What was measured:
His6-mAf1521 [1] = target: T1, His6-mAf1521 (Archaeoglobus fulgidus, UniProt O28751); test: Pull-down competition assay: free ADP-ribose added together with His6-mAf1521 to [32P]-ADP-ribosylated β subunit; assay type: binding; conditions: read-out: ADP-ribose EC50; "competition" conditions; 30 pmole His6-mAf1521; 2 h at room temperature; curve fitting with GraphPad PRISM
T1 construct: made in house
T1 sequence (O28751 1-192): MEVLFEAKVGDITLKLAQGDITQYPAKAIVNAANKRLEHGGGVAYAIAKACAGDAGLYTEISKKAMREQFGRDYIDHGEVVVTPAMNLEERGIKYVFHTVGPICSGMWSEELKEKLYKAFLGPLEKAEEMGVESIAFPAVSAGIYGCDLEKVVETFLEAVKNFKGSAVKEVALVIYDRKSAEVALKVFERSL
Protocol: (§1) The ADP-ribosyltransferase activity was measured by following the incorporation of radioactive ADP-ribose into membrane proteins, as previously described^19, with some modifications. Samples (10 µg plasma membranes) were incubated with 50 µl ADP-ribosylation buffer (50 mM potassium phosphate buffer (PFB), pH 7.4, 5 mM MgCl2, 4 mM dithiothreitol (DTT), 10 µM GTPγS, 700 µM β-NAD^+ and 4.5 µCi [^32P]-NAD (specific activity: 1,000 Ci/mmol)) at 37 °C for 60 min, unless otherwise specified. Under these conditions, 10% of the total β was mono-ADP-ribosylated; to obtain maximal modification (80%-100% of total β mono-ADP-ribosylated), the incubation was prolonged to 12 h at 30 °C. […]
(§2) Plasma membranes (10 µg for each sample) were ADP-ribosylated as described above, washed with 50 mM PFB, pH 7.4, to remove unbound NAD, and then centrifuged at 16.000x g for 15 min at 4 °C. […] Then the resin was washed three times with RIPA buffer plus 10 mM imidazole, and finally both the washed resin and the unbound fraction (one-eight of the total volume) were diluted in 50 µl Laemmli buffer, boiled and analysed by 10% SDS-PAGE. […] The gels underwent colloidal Coomassie blue (blue code, Pierce) or silver staining, and the bands of interest were analysed by MALDI-TOF-MS. […]

His6-mAf1521 [2] = target: T1, His6-mAf1521; test: Pull-down displacement assay: free ADP-ribose added after pull-down of [32P]-ADP-ribosylated β subunit by resin-bound His6-mAf1521; assay type: binding; conditions: "displacement" conditions; ADP-ribose added after pull-down by 30 pmole His6-mAf1521; 4 h at room temperature
Protocol: as §1, §2

EC50 (His6-mAf1521 [1]): 5 µM
EC50 (His6-mAf1521 [2]): 10 µM
Substance: ADP-ribose
